Experimental data: patent publication US6570069B1, “Nucleic acids encoding plant inhibitors of apoptosis and transgenic cells and plants expressing them” (priority 2000, dated 2003)

Experiments:
[1] = test system: caspase-3 and similar DEVD-cleaving proteases in cell extracts treated with cyto c; experiment: Cell-free caspase activation induced by cyto c in HEK 293 cytosolic extracts; type: biochemical, human
Protocol: (§1) Caspase activity was assayed by release of 7-amino-4-trifluoromethyl-coumarin (AFC) from Ac-DEVD or Ac-LEHD-containing synthetic peptides (Calbiochem) using continuous-reading instuments as described (Quan, L. T. et al., (1995) J. Biol. Chem. 270:10377-10379).
(§2) Cytosolic extracts were prepared as described (Deveraux, Q., Takahashi, R., Salvesen, G. S. & Reed, J. C. (1997) Nature 388, 300-303) using human embryonic kidney (HEK) 293 cells. Cells were washed with ice-cold buffer A (20 mM HEPES pH 7.5, 10 mM KCl, 1.5 mM MgCl2, 1 mM EDTA and 1 mM DTT), suspended in 1 volume of buffer A, incubated on ice for 20 mins, and then disrupted by 15 passages through a 26-gauge needle. Cell extracts were purified by centrifugation at 15000 g for 12 mins and supernatants were stored at −80 ° C. For initiating caspase activation, either 100 nM of purified recombinant caspase-8 or 1 μM horse heart cytochrome c (Sigma) together with 1 mM dATP was added to extracts (Deveraux, Q. L., et al., (1998) EMBO J. 17, 2215-2223).
(§3) To further explore the mechanisms by which SfIAP and CpIAP inhibit mammalian apoptosis, a cell-free system in which exogenously added active caspase-8 or cyto c induces activation of caspase-3 and similar proteases, as measured by hydrolysis of Ac-DEVD-AFC (Quan, L. T. et al., (1995) J. Biol. Chem. 270, 10377-10379) was used. […]

[2] = test system: DEVD-cleaving proteases in cell extracts treated with caspase-8; experiment: Cell-free caspase activation induced by active caspase-8 in HEK 293 cytosolic extracts; type: biochemical, human; conditions: caspase-8-treated extracts
Protocol: as §1, §2, §3

[3] = test system: Fas-induced apoptosis in HEK293 cells; experiment: Fas-induced apoptosis in HEK293 cells (co-transfection, DAPI nuclear morphology); type: cell-based, human; conditions: IAP plasmid co-transfected with Fas into HEK293 cells; % apoptosis 24-36 hours later
Protocol: (§4) HEK293 and 293T cells were maintained in DMEM (Irvine Scientific) supplemented with 10% fetal bovine serum, 1 mM L-glutamine and antibiotics. 293 cells (10^6) were co-transfected using Superfect with 0.1 μg Green Fluoresence Protein (GFP) marker plasmid pEGFP (Clontech), 0.25 ug of either pcDNA3-Bax or pcDNA3-Fas, and 1.5 μg of either pcDNA3myc-SfIAP or pcDNA3myc-CpIAP. Alternatively, cells were co-transfected with 0.35 μg pcDNA3-caspase-9-Flag and 2.1 μg of either SfIAP or CpIAP. […] In some cases, lysates were prepared from transfected cells, normalized for total protein content, and analyzed by SDS-PAGE/immunoblotting as described (Deveraux, Q., et al., (1997) supra; Deveraux, Q. L., et al. (1998) supra; Roy, N. et al. (1997) supra; Takahashi, R., et al., (1998), supra.).
(§5) Baculoviral IAPs have been reported to protect mammalian cells from some apoptotic stimuli (Hawkins, C. J. et al., (1996) Proc. Natl. Acad. Sci. USA 93, 13786-13790; Hawkins, C. et al., (1998) Cell Death and Differentiation 5, 569-576; Uren, A. G. et al., (1996) Proc. Natl. Acad. Sci. USA 93, 4974-4978). Tests were performed to determine whether SfIAP is also capable of functioning as an apoptosis suppressor in a mammalian cell context. […]
(§6) Plasmids encoding various IAPs were co-transfected with Bax or Fas into 293 cells and % apoptosis was determined 24-36 hours later. […]

[4] = test system: Bax-induced apoptosis in HEK293 cells; experiment: Bax-induced apoptosis in HEK293 cells (co-transfection, DAPI nuclear morphology); type: cell-based, human; conditions: IAP plasmid co-transfected with Bax into 293 cells; % apoptosis 24-36 hours later
Protocol: as §4, §5, §6

pro-caspase-9 = target: T1, pro-caspase-9 (Homo sapiens, UniProt P55211); experiment: GST pull-down binding of [35S]-pro-caspase-9; design: species or system mammalian; conditions: GST fusion protein on glutathione-Sepharose
T1 construct: host or cells: cell-free in vitro transcription/translation
T1 sequence (P55211 1-416): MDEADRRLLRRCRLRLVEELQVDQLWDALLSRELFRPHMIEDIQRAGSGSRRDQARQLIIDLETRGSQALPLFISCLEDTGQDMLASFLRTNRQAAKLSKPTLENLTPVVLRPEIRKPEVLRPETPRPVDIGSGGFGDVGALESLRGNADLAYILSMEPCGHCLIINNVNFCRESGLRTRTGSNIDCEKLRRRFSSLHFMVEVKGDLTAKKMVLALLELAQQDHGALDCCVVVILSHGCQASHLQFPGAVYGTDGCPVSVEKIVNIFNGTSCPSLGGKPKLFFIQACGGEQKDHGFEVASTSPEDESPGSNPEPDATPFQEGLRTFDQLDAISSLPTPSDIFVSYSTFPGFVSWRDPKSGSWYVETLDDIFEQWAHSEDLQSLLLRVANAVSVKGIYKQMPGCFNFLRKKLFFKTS
Protocol: [^35S]Pro-caspase-9 was in vitro transcribed and translated in the presence of [^35S]L-methionine using TNT kit from Promega. Protein were desalted and exchanged into buffer (20 mM HEPES pH 7.5, 10 mM KCl, 1.5 mM MgCl2, 1 mM EDTA and 1 mM DTT) with Bio-spin P-6 columns (Bio-Rad). […] After incubation at 4 ° C. for 1 hour, beads were removed by centrifugation and washed twice with 0.5 ml of 50 mM Tris (pH 7.5), 150 mM NaCl, 2 mm DTT before analysis by SDS-PAGE and autoradiography.

[5] = test system: caspase-9-induced caspase activation and apoptosis in 293T cells; experiment: Caspase-9 overexpression in 293T cells: caspase activity and apoptosis; type: cell-based, human; conditions: 24-36 hours after transfection
Protocol: as §4
To test this hypothesis, 293T cells were transfected with plasmids encoding pro-caspase-9 alone or in combination with SfIAP and CpIAP. Caspase activity and apoptosis were then assayed 24-36 hours later.

For “XIAP: human IAP, included as a positive control”, the “suppression of pro-caspase-3 processing (immunoblot)” value ([1]; cyto c-treated extracts) was “suppressed in both cases”, the “effect on hydrolysis of Ac-DEVD-AFC (caspase activity)” value ([1]; recombinant protein, cell extracts treated with cyto c) was “completely blocked the hydrolysis of Ac-DEVD-AFC” and the “suppression of pro-caspase-3 processing (immunoblot)” value [2] was “suppressed in both cases”. The “suppression of Fas-induced apoptosis” value [3] was “did protect against Fas”, the “suppression of Bax-induced apoptosis” value [4] was “inhibited Bax-induced apoptosis” and the “binding to pro-caspase-9 (autoradiography)” value (pro-caspase-9) was “associated with pro-caspase-9”. For the same substance, the “inhibition of caspase-9-induced apoptosis” value [5] was “inhibited caspase-9-induced apoptosis” and the “suppression of activation of downstream DEVD-cleaving caspases induced by overexpression of caspase-9” value [5] was “markedly suppressed activation of downstream DEVD-cleaving caspases”.
